In one test the target is Y5.38A 5-HT1D receptor (Homo sapiens, UniProt P28221, Y197A). Nature of the test: Radioligand binding, Y5.38A 5-HT1D. Conditions: read-out: KD (nM) 5-HT1D Y5.38A; saturation binding.
The target in the next test is Y5.38A 5-HT1A receptor (Homo sapiens, UniProt P08908, Y195A). The test can be described thus: Radioligand binding, Y5.38A 5-HT1A. Conditions: read-out: KD (nM) 5-HT1A Y5.38A; saturation binding.
Another test deals with V45.52I 5-HT1B receptor (Homo sapiens, UniProt P28222, V201I). Nature of the test: Radioligand binding, V45.52I 5-HT1B. Particulars: read-out: KD (nM) 5-HT1B V45.52I; saturation binding.
Another test deals with V45.52I 5-HT1D receptor (Homo sapiens, UniProt P28221, V190I). Nature of the test: Radioligand binding, V45.52I 5-HT1D. Conditions: read-out: KD (nM) 5-HT1D V45.52I; saturation binding.
In the next test the target is T7.39N 5-HT1B receptor (Homo sapiens, UniProt P28222, T355N). Nature of the test: Radioligand binding, T7.39N 5-HT1B. Conditions: read-out: KD (nM) 5-HT1B T7.39N; saturation binding.
The target of a further test is S5.42A 5-HT1D receptor (Homo sapiens, UniProt P28221, S201A). Nature of the test: Radioligand binding, S5.42A 5-HT1D. Particulars: read-out: KD (nM) 5-HT1D S5.42A; saturation binding.
The target in the next test is T7.39N 5-HT1D receptor (Homo sapiens, UniProt P28221, T342N). Nature of the test: Radioligand binding, T7.39N 5-HT1D. Particulars: read-out: KD (nM) 5-HT1D T7.39N; saturation binding.
For a further test, the target named is S5.42A 5-HT1A receptor (Homo sapiens, UniProt P08908, S199A). The test can be described thus: Radioligand binding, S5.42A 5-HT1A. Particulars: read-out: KD (nM) 5-HT1A S5.42A; saturation binding.
Another test has as its target V3.33I 5-HT1A receptor (Homo sapiens, UniProt P08908, V117I). Nature of the test: Radioligand binding, V3.33I 5-HT1A. Particulars: read-out: KD (nM) 5-HT1A V3.33I; saturation binding.
For another test, the target named is S5.42A 5-HT1B receptor (Homo sapiens, UniProt P28222, S212A). The test can be described thus: Radioligand binding, S5.42A 5-HT1B. Particulars: read-out: KD (nM) 5-HT1B S5.42A; saturation binding.
The next test deals with Y5.38F 5-HT1A receptor (Homo sapiens, UniProt P08908, Y195F). Nature of the test: Radioligand binding, Y5.38F 5-HT1A. Conditions: read-out: KD (nM) 5-HT1A Y5.38F; saturation binding.
The target of the next test is N7.39T 5-HT1A receptor (Homo sapiens, UniProt P08908, N386T). The test can be described thus: Radioligand binding, N7.39T 5-HT1A. Conditions: read-out: KD (nM) 5-HT1A N7.39T; saturation binding.
Another test deals with Y5.38F 5-HT1D receptor (Homo sapiens, UniProt P28221, Y197F). Nature of the test: Radioligand binding, Y5.38F 5-HT1D. Particulars: read-out: KD (nM) 5-HT1D Y5.38F; saturation binding.
Another test concerns the target human 5-HT1B receptor (Homo sapiens, UniProt P28222). The test can be described thus: Radioligand binding (saturation and competition), WT 5-HT1B. Particulars: read-out: KD of radioligand at 5-HT1B WT; saturation binding.

Chains of the proteins cited; added tags and fusions are not shown.
UniProt P28221, whole entry Y197A: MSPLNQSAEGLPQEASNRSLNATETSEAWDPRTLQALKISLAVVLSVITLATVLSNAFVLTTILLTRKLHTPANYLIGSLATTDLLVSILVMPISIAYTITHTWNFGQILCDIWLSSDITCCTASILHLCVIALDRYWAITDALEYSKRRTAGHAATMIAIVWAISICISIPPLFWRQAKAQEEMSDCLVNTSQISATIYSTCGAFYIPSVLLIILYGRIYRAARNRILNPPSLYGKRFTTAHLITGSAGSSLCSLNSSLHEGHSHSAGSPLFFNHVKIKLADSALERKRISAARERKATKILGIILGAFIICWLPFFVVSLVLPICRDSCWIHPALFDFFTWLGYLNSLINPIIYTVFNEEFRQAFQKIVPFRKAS
UniProt P28221, whole entry V190I: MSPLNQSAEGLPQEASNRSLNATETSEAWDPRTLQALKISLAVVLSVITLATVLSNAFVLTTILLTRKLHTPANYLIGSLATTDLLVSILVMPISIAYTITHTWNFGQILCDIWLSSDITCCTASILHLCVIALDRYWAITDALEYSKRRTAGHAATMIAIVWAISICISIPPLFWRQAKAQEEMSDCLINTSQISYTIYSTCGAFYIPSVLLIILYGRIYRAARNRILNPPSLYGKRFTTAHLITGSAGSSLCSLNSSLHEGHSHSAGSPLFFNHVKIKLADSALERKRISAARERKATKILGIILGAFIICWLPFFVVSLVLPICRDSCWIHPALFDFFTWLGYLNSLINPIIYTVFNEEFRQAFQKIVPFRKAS
UniProt P28221, whole entry S201A: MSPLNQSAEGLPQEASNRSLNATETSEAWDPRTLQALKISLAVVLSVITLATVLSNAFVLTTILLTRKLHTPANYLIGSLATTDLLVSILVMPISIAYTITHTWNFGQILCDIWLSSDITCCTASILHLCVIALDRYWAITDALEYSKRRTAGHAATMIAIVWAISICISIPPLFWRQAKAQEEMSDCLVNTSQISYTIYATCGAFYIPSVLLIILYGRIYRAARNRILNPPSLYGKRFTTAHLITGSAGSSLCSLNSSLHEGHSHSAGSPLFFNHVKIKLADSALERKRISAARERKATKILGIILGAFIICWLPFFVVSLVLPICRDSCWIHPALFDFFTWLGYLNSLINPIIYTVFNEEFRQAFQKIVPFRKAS
UniProt P28221, whole entry T342N: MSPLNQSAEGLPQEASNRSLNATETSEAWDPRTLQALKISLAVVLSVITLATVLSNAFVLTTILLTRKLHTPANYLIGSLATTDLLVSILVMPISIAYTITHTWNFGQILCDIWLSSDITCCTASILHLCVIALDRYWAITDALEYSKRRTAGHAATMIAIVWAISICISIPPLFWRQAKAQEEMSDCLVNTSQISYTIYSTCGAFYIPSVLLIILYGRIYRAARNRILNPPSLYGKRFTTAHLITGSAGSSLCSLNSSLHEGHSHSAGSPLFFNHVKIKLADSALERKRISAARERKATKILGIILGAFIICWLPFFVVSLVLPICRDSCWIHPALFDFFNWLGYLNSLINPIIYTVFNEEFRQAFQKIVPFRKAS
UniProt P28221, whole entry Y197F: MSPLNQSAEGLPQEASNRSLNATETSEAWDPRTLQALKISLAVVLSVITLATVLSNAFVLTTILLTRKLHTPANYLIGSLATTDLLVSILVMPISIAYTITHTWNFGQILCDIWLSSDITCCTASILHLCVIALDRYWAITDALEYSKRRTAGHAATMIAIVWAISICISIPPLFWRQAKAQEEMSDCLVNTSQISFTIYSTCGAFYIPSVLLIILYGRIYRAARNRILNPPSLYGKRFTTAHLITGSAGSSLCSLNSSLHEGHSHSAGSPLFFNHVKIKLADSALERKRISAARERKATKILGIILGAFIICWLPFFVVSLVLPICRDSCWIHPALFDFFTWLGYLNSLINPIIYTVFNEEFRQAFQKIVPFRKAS
UniProt P08908, whole entry Y195A: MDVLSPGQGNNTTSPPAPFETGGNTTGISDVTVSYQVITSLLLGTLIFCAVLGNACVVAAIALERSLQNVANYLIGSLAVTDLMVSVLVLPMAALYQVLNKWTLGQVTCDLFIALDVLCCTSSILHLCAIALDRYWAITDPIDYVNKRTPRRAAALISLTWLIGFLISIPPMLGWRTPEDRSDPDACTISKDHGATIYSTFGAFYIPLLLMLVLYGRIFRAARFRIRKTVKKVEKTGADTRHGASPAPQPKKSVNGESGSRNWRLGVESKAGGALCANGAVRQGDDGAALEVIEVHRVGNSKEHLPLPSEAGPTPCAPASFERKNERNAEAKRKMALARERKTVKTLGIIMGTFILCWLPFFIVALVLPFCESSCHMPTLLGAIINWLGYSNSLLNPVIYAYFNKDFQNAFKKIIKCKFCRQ
UniProt P08908, whole entry S199A: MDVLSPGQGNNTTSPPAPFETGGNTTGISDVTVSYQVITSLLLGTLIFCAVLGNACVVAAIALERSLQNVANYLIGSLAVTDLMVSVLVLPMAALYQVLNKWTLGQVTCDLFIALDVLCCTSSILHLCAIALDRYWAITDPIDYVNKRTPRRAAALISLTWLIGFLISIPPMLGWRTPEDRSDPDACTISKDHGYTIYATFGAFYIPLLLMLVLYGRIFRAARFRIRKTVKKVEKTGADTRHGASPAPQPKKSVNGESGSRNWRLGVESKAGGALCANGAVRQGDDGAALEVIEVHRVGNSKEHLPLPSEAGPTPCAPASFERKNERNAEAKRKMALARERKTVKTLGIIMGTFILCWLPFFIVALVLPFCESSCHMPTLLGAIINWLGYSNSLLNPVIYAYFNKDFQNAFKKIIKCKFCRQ
UniProt P08908, whole entry V117I: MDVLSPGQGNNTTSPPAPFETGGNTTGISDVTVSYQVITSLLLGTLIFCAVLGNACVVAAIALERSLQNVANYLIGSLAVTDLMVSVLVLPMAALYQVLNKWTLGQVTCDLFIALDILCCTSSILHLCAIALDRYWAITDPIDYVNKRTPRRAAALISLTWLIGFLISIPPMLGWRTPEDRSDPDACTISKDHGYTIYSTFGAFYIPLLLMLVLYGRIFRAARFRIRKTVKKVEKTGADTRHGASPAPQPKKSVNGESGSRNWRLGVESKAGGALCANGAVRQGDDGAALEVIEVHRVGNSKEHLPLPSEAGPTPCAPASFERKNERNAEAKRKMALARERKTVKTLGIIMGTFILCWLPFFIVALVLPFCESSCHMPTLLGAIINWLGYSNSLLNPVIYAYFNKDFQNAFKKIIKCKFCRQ
UniProt P08908, whole entry Y195F: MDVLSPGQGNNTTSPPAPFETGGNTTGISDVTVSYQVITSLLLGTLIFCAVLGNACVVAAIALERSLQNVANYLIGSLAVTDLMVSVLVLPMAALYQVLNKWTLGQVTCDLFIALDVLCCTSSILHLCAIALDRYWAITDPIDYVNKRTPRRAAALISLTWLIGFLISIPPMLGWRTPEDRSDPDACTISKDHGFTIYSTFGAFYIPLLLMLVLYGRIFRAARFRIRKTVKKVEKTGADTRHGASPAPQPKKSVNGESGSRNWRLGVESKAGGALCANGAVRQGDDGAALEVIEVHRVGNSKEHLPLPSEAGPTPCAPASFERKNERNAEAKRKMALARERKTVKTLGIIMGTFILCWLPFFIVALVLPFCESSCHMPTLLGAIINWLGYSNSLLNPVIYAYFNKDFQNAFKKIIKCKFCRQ
UniProt P08908, whole entry N386T: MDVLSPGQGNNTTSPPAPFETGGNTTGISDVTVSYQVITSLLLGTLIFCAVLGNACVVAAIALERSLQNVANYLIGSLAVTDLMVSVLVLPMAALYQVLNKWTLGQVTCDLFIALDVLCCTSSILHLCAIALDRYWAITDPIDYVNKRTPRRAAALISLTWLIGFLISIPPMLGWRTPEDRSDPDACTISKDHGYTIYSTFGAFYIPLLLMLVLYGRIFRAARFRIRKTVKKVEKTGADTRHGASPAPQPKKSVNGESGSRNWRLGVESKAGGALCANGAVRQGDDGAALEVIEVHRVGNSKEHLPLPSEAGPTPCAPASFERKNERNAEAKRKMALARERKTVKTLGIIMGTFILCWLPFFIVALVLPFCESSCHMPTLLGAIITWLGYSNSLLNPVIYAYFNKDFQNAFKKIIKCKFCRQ
UniProt P28222, whole entry V201I: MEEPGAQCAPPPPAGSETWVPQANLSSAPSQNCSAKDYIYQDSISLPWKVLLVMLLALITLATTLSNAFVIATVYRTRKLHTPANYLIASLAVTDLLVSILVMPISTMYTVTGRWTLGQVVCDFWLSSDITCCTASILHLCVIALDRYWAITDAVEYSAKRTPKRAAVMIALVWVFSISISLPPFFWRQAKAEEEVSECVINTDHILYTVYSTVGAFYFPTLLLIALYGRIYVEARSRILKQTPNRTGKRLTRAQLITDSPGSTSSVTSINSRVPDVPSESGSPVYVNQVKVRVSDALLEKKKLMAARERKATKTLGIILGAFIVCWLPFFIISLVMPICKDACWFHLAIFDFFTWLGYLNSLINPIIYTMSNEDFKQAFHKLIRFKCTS
UniProt P28222, whole entry T355N: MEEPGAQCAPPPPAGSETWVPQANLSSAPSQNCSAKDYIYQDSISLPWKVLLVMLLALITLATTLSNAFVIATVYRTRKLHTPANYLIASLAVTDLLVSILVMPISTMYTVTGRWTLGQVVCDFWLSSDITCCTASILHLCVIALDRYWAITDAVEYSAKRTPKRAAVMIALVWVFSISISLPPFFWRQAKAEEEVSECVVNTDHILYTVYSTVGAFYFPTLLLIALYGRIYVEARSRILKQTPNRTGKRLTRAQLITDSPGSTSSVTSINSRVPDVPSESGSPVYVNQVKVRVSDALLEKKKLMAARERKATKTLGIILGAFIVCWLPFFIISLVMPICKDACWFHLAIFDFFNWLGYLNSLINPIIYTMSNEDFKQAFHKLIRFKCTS
UniProt P28222, whole entry S212A: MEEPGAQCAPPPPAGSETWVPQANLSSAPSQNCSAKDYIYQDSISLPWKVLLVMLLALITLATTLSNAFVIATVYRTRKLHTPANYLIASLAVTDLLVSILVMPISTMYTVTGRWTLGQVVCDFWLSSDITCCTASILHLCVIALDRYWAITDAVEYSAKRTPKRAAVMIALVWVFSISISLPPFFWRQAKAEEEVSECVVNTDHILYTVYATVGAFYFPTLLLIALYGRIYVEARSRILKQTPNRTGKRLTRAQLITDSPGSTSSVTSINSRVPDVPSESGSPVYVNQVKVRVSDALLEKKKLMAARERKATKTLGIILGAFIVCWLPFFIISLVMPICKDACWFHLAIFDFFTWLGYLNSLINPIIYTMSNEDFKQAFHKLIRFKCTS
UniProt P28222, whole entry: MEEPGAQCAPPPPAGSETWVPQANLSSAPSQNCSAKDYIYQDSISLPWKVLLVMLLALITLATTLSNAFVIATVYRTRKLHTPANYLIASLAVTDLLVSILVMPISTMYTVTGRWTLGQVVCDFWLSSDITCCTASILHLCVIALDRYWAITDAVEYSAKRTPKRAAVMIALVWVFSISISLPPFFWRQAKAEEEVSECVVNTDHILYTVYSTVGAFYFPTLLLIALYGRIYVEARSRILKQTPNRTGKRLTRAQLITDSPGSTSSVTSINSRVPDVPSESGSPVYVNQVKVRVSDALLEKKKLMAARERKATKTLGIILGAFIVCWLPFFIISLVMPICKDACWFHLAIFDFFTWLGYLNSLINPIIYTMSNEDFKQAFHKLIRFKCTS

As for [^3H]5-CT [reference compound], the Kd at Y5.38A 5-HT1D receptor was found to be 6.2 ± 0.02 nM; at Y5.38A 5-HT1A receptor it was 6 ± 0.1 nM; at V45.52I 5-HT1B receptor, 5.9 ± 0.4 nM; on V45.52I 5-HT1D receptor it was 0.95 ± 0.02 nM; at T7.39N 5-HT1B receptor, 5.6 ± 0.3 nM; at S5.42A 5-HT1D receptor, 7.6 ± 0.2 nM. Moreover, the Kd was 0.87 ± 0.2 nM at T7.39N 5-HT1D receptor; 13.2 ± 0.1 nM at S5.42A 5-HT1A receptor; 2.5 ± 0.3 nM at V3.33I 5-HT1A receptor; 11.8 ± 0.6 nM on S5.42A 5-HT1B receptor; 5.5 ± 0.2 nM on Y5.38F 5-HT1A receptor; 2.7 ± 0.1 nM at N7.39T 5-HT1A receptor. The equilibrium dissociation constant (Kd) on Y5.38F 5-HT1D receptor was determined as 3.3 ± 0.2 nM; on human 5-HT1B receptor it was 5.3 ± 0.5 nM.

Source of the values: publication PMC10797628.
